Sequences and labels used below:
B1: hsa-mir-6727 (structured_RNA)
RNA: GGGAAAGGUGCACAUUUUAACUCAGCGUGGUGUACGAAGUUUCAGCGGGAGCGGCCCUCACAUUGAUGGCUCCUGCUGAAGCUUCGUGCAC
B2: hsa-mir-5010 (structured_RNA)
RNA: GGGAUGUGAGUUGGACCUACUCUCACCGGGUGUACGAAGUUUCAGCAAAAUUCAUGGCCUACAGCUGCCUCUUGCCAAACUGCACUGGAUUUUGCUGAAGCUUCGUGCAC
B3: hsa-let-7a-1 (structured_RNA)
RNA: GGGAAGCACCCAGCAUGGAUGCAACUGAGGUGUACGAAGUUUCAGCAUAGUUUUAGGGUCACACCCACCACUGGGAGAUAACUAUGCUGAAGCUUCGUGCAC
B4: hsa-mir-4803 (structured_RNA)
RNA: GGGACCACAAGGGUAGAGGUGAUCUCAUGGUGUACGAAGUUUCAGCUUGAAUCACACACACAUUUCAAGCUGAAGCUUCGUGCAC
B5: hsa-mir-548aa-2 (structured_RNA)
RNA: GGGAAAGGUCCCUCGCCUCCAUGUAAAGGGUGUACGAAGUUUCAGCUUUUGCCAUUACUUUCAAUGGCAAAAGCUGAAGCUUCGUGCAC
B6: PARIS_ID14 (structured_RNA)
RNA: GGGACCUGUCAACUUGACUACGUAAGGCGGUGUACGAAGUUUCAGCGCUGGUGAUGCCCAACCCAGUGCUCUGCACCCAGGUCACACUGUGGCUUUGUCCUCUGCUUAUGCCUGCAUUGCAGCGCUGAAGCUUCGUGCAC
B7: hsa-mir-6783 (structured_RNA)
RNA: GGGAUAAGCGAUAUGUCCAGCUAAGCACGGUGUACGAAGUUUCAGCGAUCCGGGAACCCACAGCCCCGUUCGCUGAAGCUUCGUGCAC
B8: hsa-mir-4728 (structured_RNA)
RNA: GGGAUUACGCCAGGAGCUACCGAGAAAAGGUGUACGAAGUUUCAGCCAAGCACACAGGGCCUGGGACUAGCAUGGCUGAAGCUUCGUGCAC
B9: hsa-mir-6794 (structured_RNA)
RNA: GGGCGGUUGAUGGCCUAACGAACAUGCAGGUGUACGAAGUUUCAGCUGAGCAGGCCCAGAACCCAGCUCGUGCUCAGCUGAAGCUUCGUGCAC
B10: hsa-mir-1265 (structured_RNA)
RNA: GGGACUGCACAGAUUACGAGUUCCUGCAGGUGUACGAAGUUUCAGCUGUUAAGGCAUGUUCAGGAACAGCUGAAGCUUCGUGCAC
B11: hsa-mir-4276 (structured_RNA)
RNA: GGGAGUAUGAUUCAACCCAGCCUCGCGAGGUGUACGAAGUUUCAGCGUGCUGGCAGUGGCCACGUAAGCUGAAGCUUCGUGCAC
B12: hsa-mir-6851 (structured_RNA)
RNA: GGGAAUCAAUGAGUGGGCCACGGCAACUGGUGUACGAAGUUUCAGCGCCAGCAACCUGAUUACCCCUCUUUGGCGCUGAAGCUUCGUGCAC
B13: hsa-mir-1537 (structured_RNA)
RNA: GGGACGCAGUUCAGGUUACUACAAGGCCGGUGUACGAAGUUUCAGCUUUUCUGUCCUGUCCACACAGAAAAGCUGAAGCUUCGUGCAC
B14: hsa-mir-5690 (structured_RNA)
RNA: GGGAAAUGGACGAGUCCCCGUUAACCAAGGUGUACGAAGUUUCAGCUAGGAUUUGGGAGUUAUACUAGCUGAAGCUUCGUGCAC
B15: hsa-mir-7152 (structured_RNA)
RNA: GGGACGAGAGAUUCUGAUGCCUAAACUGGGUGUACGAAGUUUCAGCCAGACCAUGCCACAUCCGUCUGGCUGAAGCUUCGUGCAC
B16: hsa-mir-938 (structured_RNA)
RNA: GGGACAGGGCAUGCCUCUGAUAGCAAAUGGUGUACGAAGUUUCAGCCAGUGCACCUUCAUGAACCGGCUGAAGCUUCGUGCAC
B17: hsa-mir-4790 (structured_RNA)
RNA: GGGAAGCUGGUACAUCUGACAAUUAGGAGGUGUACGAAGUUUCAGCUUCAUGUUCACUGAAAGGUAGAUUUUAAAAACAUGAAGCUGAAGCUUCGUGCAC
B18: hsa-mir-6743 (structured_RNA)
RNA: GGGAGAAACGGUUCCAAAGACACUCCGUGGUGUACGAAGUUUCAGCGGCCCCAGGAAGAAGGGCCUGGUGGAGCCGCUGAAGCUUCGUGCAC
B19: hsa-mir-637 (structured_RNA)
RNA: GGGAAUAACACUGGCGGAAUCUCCAAGCGGUGUACGAAGUUUCAGCCACUGCAGUUACCCUCCCCUCGGCGUUACUGAGCACUGGCUGAAGCUUCGUGCAC
B20: NEAT1_ParasoR_ID12 (structured_RNA)
RNA: GGGACCCAUCAACGCGCUAACACCACAUGGUGUACGAAGUUUCAGCAGCAAAAUUUUAAUGACUAAAUACUGUCUUUGAUUUUUUGUUGCUGAAGCUUCGUGCAC
B21: hsa-mir-3169 (structured_RNA)
RNA: GGGAAACAUGGGCGGCACUCUUAAAGGUGGUGUACGAAGUUUCAGCAUAGCACAAAGUCUUAUGGUACUGUGCUGAAGCUUCGUGCAC
B22: hsa-mir-5697 (structured_RNA)
RNA: GGGACAUGCCUAAGGUAAAGUAAUGCCAGGUGUACGAAGUUUCAGCAAGGGUGUAUGAGAGAUCAACCCUUGCUGAAGCUUCGUGCAC

This is one part of the list.

The target in one test is U1A (Homo sapiens, UniProt P09012). Kind of test: FOREST: bead pull-down of RNA structure library v1, barcode microarray; U1A/LIN28A: 20 mM HEPES pH 7.5, 80 mM KCl, 20 mM NaCl, 10% glycerol, 2 mM DTT, 0.1 ug/uL BSA, 4 C; BG4/CIRBP/DHX36: 10 mM Tris-HCl pH 7.5, 100 mM KCl (or LiCl),; high values mean tight binding.
Regarding B1, the binding signal worked out at 1.64 z-score.
B2 registered a binding signal of 1.64 z-score.
The same measure, in the same setting: next, B3: 1.65 z-score; B4: 1.6 z-score; B5: 0.00552 z-score.
Same read-out and setting: next, B6: 1.63 z-score; B7: 0.00931 z-score.
B8 registered a binding signal of 1.67 z-score.
Still for that read-out and setting: next, B9: 1.62 z-score; B10: 0.00849 z-score.
Regarding B11, the binding signal was 0.00483 z-score.
Same read-out and setting: then B12, with 1.59 z-score.
Still for that read-out and setting: next, B13: 0.00911 z-score; B14: 0.0117 z-score; B15: 0.00734 z-score.
Same read-out and setting: next, B16: 3.07 z-score; B17: 1.64 z-score.
Molecule B18 gave a binding signal of 0.007 z-score.
Still for that read-out and setting: next, B19: 3 z-score; B20: 0.00725 z-score; B21: 1.6 z-score.
Still for that read-out and setting: next, B22: 0.0127 z-score.

In a further test the target is T1, LIN28A (human?, UniProt Q9H9Z2 1-209).
T1 sequence: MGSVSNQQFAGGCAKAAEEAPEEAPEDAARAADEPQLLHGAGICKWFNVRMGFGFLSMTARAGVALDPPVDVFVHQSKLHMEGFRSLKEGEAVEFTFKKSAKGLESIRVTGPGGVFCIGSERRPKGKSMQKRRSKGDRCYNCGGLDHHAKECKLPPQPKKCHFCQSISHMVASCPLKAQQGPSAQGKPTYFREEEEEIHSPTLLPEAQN
The description is as above.
For B1, the binding signal stood at 0.74 z-score.
The same measure, in the same setting: next, B2: -0.75 z-score.
The same measure, in the same setting: next, B3: 1.84 z-score; B4: 0.355 z-score; B5: -1.36 z-score.
The same measure, in the same setting: then B6, with -0.532 z-score; and B7, with 0.681 z-score.
Take B8: the binding signal stood at 1.61 z-score.
Same read-out and setting: next, B9: -0.28 z-score; B10: 0.446 z-score; B11: -0.318 z-score.
Same read-out and setting: next, B12: -0.425 z-score; B13: -0.15 z-score; B14: 1.36 z-score.
B15 registered a binding signal of 1.64 z-score.
The molecule B16 returned a binding signal of -0.618 z-score.
The same measure, in the same setting: then B17, with -0.0826 z-score; and B18, with -0.183 z-score.
Still for that read-out and setting: then B19, with 0.254 z-score; and B20, with -0.919 z-score.
As to B21, the binding signal was -1.03 z-score.
Take B22: the binding signal is -0.308 z-score.

A further test addresses T2, CIRBP (Homo sapiens, UniProt Q14011 1-172).
T2 sequence: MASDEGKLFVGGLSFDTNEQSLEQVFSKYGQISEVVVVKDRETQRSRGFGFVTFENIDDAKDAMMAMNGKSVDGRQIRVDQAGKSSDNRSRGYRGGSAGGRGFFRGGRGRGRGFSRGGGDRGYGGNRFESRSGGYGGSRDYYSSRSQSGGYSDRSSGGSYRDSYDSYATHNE
The description is as above.
Molecule B1 returned a binding signal of 0.334 z-score.
The same measure, in the same setting: next, B2: 0.02 z-score.
For B3, the binding signal is -0.85 z-score.
Molecule B4 displayed a binding signal of 0.207 z-score.
Consider B5, for which the binding signal is 0.747 z-score.
B6: the binding signal was -0.459 z-score.
The molecule B7 gave a binding signal of 1.01 z-score.
Same read-out and setting: then B8, with 2.9 z-score; and B9, with -1.61 z-score.
The molecule B10 had a binding signal of -1.13 z-score.
Still for that read-out and setting: then B11, with -0.354 z-score; and B12, with -0.324 z-score.
Same read-out and setting: next, B13: 0.387 z-score; B14: 0.47 z-score; B15: -0.296 z-score.
B16 yielded a binding signal of -0.636 z-score.
The same measure, in the same setting: next, B17: -0.559 z-score; B18: -0.501 z-score.
The molecule B19 returned a binding signal of 0.201 z-score.
For B20, the binding signal was -1.08 z-score.
On the same count and under the same terms, next, B21: -0.326 z-score; B22: 0.997 z-score.

In another test the target is T3, DHX36 (Homo sapiens, UniProt Q9H2U1 1-1008).
T3 sequence: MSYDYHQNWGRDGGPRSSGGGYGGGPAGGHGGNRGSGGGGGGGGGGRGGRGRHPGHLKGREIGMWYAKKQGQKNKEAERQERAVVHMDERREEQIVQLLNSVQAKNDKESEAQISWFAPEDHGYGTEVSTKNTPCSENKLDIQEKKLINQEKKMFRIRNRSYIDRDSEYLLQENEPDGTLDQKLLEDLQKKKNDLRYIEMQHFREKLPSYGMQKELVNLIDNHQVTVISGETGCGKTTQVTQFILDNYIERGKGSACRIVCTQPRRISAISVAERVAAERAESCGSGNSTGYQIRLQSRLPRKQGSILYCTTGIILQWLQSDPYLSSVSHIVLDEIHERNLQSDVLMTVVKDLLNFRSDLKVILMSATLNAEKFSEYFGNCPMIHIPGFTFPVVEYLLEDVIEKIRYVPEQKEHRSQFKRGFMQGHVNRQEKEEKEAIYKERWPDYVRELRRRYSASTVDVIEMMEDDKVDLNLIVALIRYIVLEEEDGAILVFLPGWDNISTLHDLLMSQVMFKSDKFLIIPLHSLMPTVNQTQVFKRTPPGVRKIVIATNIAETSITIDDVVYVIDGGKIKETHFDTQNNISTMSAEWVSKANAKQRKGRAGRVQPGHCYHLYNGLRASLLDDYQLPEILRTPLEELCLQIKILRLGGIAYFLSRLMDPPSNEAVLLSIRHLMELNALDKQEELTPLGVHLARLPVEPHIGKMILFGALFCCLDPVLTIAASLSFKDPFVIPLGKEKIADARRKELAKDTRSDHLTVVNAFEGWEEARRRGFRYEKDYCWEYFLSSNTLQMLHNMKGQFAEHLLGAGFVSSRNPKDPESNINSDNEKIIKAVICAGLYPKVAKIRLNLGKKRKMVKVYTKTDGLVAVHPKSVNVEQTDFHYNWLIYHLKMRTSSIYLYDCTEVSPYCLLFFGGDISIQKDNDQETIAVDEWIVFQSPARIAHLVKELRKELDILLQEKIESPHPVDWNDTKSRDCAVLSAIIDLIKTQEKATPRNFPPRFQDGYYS
Described as above.
The molecule B1 had a binding signal of 0.681 z-score.
Still for that read-out and setting: next, B2: -0.805 z-score; B3: 0.889 z-score; B4: 0.963 z-score.
The same measure, in the same setting: next, B5: -0.586 z-score; B6: -0.225 z-score; B7: 0.0688 z-score.
With B8, the binding signal was determined as 1.73 z-score.
Same read-out and setting: then B9, with 0.804 z-score.
Still for that read-out and setting: next, B10: -0.176 z-score; B11: -0.508 z-score.
Same read-out and setting: next, B12: -0.508 z-score.
The molecule B13 yielded a binding signal of -0.685 z-score.
Same read-out and setting: next, B14: 1.36 z-score.
Still for that read-out and setting: then B15, with -1.06 z-score; and B16, with -1.16 z-score.
Same read-out and setting: then B17, with 0.0889 z-score; and B18, with -0.00886 z-score; and B19, with 0.877 z-score.
B20 came in with a binding signal of -0.222 z-score.
Still for that read-out and setting: then B21, with -0.914 z-score; and B22, with -0.00865 z-score.

(Values after paper PMC7723054.)
